According to PubChem BioAssay AID624297 (National Center for Advancing Translational Sciences (NCATS), 2012):
Only a part is listed here, and it is no random draw. Results filed as inconclusive are left out. Some salts or complexes appear as unconnected parts, following the source record. Active and inactive are the calls of the source. Calls come from the whole dose curve; as a rule, active = well fitted activation curve with a large enough effect; inconclusive = small, poorly fitted or top-dose-only effect; inactive = no such curve, though single readings can be large or run the other way.

Experiment: A quantitative high throughput screen for small molecules that induce DNA re-replication in SW480 colon adenocarcinoma cells. For re-replication activation: % of control where 0% means no effect. Note: nearly all actives have a fitted effect of over 55% in size.
Settings: Hoechst DNA content imaging, 48 h; series mostly up to 46.1 µM; re-replication activation: at the top concentration
Potency is the fitted concentration of half-maximal effect.

SMILES	re-replication activation	Potency
Cc1ccc(C(=O)NCC2(N3CCCCC3)CCCCC2)o1	inactive: -1.98%	
Fc1ccccc1NC1CCN(Cc2ccccc2)CC1	inactive: -12.8%	
Cc1ccc(NC2(C#N)CCN(Cc3ccccc3)CC2)cc1	inactive: 0.691%	
CC(=O)N(c1ccccc1)C1CCNCC1	inactive: -13.8%	
COc1cc(OC)cc(C(=O)NCC2(N3CCCCC3)CCCCC2)c1	inactive: -0.106%	
O=C(NCC1(N2CCCCC2)CCCCC1)c1ccco1	inactive: 3.32%	
CN(C)c1ccc(C(=O)NCC2(N3CCCCC3)CCCCC2)cc1	inactive: -7.35%	
Cc1ccccc1NC1(C#N)CCN(Cc2ccccc2)CC1	inactive: -9.54%	
CCN1CCC(Nc2cccc(F)c2)CC1	inactive: 0.364%	
CC(C)(C)OC(=O)N1CCC(Nc2ccccc2)CC1	inactive: -4.21%	
O=C(O)C1(Nc2ccccc2)CCN(Cc2ccccc2)CC1	inactive: -20.5%	
CCCOc1ccc(C(=O)NCC2(N(C)C)CCCCC2)cc1	inactive: 0.745%	
CCOc1ncccc1C(=O)NCC1(N2CCOCC2)CCCCC1	inactive: -3.11%	
CN1CCC(Nc2ccc(F)c(Cl)c2)CC1	inactive: 2.88%	
CN1CCC(Nc2ccc(Cl)cc2)CC1	inactive: -5.06%	
COc1cc(OC)cc(C(=O)NCC2(N3CCOCC3)CCCCC2)c1	inactive: 6.89%	
COc1cccc(C(=O)N(c2cc(C)cc(C)c2)C2CCN(C(=O)OC(C)(C)C)CC2)c1	inactive: 2.76%	
CCC(CO)(C(=O)OC1CN2CCC1CC2)c1ccccc1 (stereo unspecified)	inactive: 4.55%	
COc1ccc(C(=O)NCC2(N3CCOCC3)CCCCC2)cc1OC	inactive: 0.256%	
COc1cc(C(=O)NCC2(N3CCOCC3)CCCCC2)cc(OC)c1C	inactive: 0.051%	
O=C(NCC1(N2CCOCC2)CCCCC1)c1cc(Br)ccc1Cl	inactive: 2.28%	
O=C(OC1CN2CCC1CC2)C1c2ccccc2C=Cc2ccccc21 (stereo unspecified)	inactive: -12.3%	
CCc1cc(C(=O)NCC2(N3CCCCC3)CCCCC2)sc1C	inactive: -63.7%	
O=C(O)c1cccc(Nc2c([N+](=O)[O-])cc([N+](=O)[O-])cc2[N+](=O)[O-])c1	inactive: 23.3%	
CCOC(=O)N1CCC(Nc2ccc(C)cc2)CC1	inactive: 0.431%	
N/C(=N\O)c1c(N)no[n+]1[O-]	inactive: 0.542%	

SMILES	re-replication activation	Potency
CCOC(=O)C(CC)C1=NC(C)(C)Cc2ccccc21.O=[N+]([O-])c1cc([N+](=O)[O-])c(O)c([N+](=O)[O-])c1 (stereo unspecified)	inactive: -2.09%	
N#Cc1ccc(C(=O)NCC2(N3CCCCC3)CCCCC2)cc1	inactive: 10.6%	
CC(C)(C)OC(=O)N1CCC(N(C(=O)c2ccccc2)c2ccc(Cl)cc2)CC1	inactive: -3.63%	
CN(C)C1(CNC(=O)c2cccc(C#N)c2)CCCCC1	inactive: -5.46%	
c1ccc(CN2CCC(Nc3ccccc3)CC2)cc1	inactive: -8.61%	
CCN1CCC(Nc2ccc(Cl)cc2)CC1	inactive: 11.6%	
N#CC1(Nc2ccccc2)CCN(CCc2ccccc2)CC1	inactive: 1.32% [at 9.22 µM]	
CSc1ccc(C(=O)NCC2(N3CCOCC3)CCCCC2)cc1	inactive: -2.4%	
O=C(NCC1(N2CCCCC2)CCCCC1)c1cccc([N+](=O)[O-])c1	inactive: 6.62%	
O=C(NCC1(N2CCCCC2)CCCCC1)c1ccc(OC(F)F)cc1	inactive: 1.08%	
COc1cc(C(=O)NCC2(N3CCCCC3)CCCCC2)ccc1OC(F)F	inactive: -3.16%	
O=C(NCC1(N2CCOCC2)CCCCC1)c1cc(=O)[nH]c2ccccc12	inactive: -3.51%	
CN1CCN(CCOC(=O)C(O)(c2ccccc2)c2ccccc2)CC1	inactive: -76.6%	
COc1ccc(NC2CCN(C(=O)OC(C)(C)C)CC2)cc1	inactive: -13.4%	
O=C(NCC1(N2CCCCC2)CCCCC1)c1cccc(C(F)(F)F)c1	inactive: -4.12%	
COc1cc(OC)c(C(=O)NCC2(N(C)C)CCCCC2)cc1OC	inactive: -5.9%	
O=C(NCC1(N2CCOCC2)CCCCC1)c1cc(F)c(F)cc1Cl	inactive: 4.32%	
CC(C)c1ccc(NC2CCN(C(=O)OC(C)(C)C)CC2)cc1	inactive: -3.18%	
COc1ccc(CN(CCCl)CCCl)cc1Cl	inactive: -3.62%	
O=[N+]([O-])c1cc([N+](=O)[O-])c(OC2CCCCC2O)c([N+](=O)[O-])c1 (stereo unspecified)	inactive: -2.02%	
CN(C)c1cccc(C(=O)NCC2(N3CCCCC3)CCCCC2)c1	inactive: -5.73%	
CCCOc1ccc(C(=O)NCC2(N(C)C)CCCCC2)cc1OC	inactive: 2.88%	
O=C(OC1CN2CCC1CC2)c1ccc([N+](=O)[O-])cc1 (stereo unspecified)	inactive: -10.7%	
COc1ccc2c(c1O)-c1c(O)c(OC)cc3c1[C@H](C2)[N+](C)(C)CC3.O=[N+]([O-])c1cc([N+](=O)[O-])c([O-])c([N+](=O)[O-])c1[O-]	inactive: -7.3%	
O=C(NCC1(N2CCCCC2)CCCCC1)c1cncc(Br)c1	inactive: -14.7%	
CN1CCC(Nc2cccc(F)c2)CC1	inactive: -5.33%	

SMILES	re-replication activation	Potency
CSc1ccccc1C(=O)NCC1(N2CCCCC2)CCCCC1	inactive: 5.96%	
Cc1cccc(NC2(C#N)CCN(Cc3ccccc3)CC2)c1	inactive: -1.15%	
COc1ccc(C(=O)NCC2(N3CCCCC3)CCCCC2)cc1	inactive: 0.56%	
CC(C)(C)OC(=O)N1CCC(N(C(=O)c2ccccc2)c2ccc(F)cc2)CC1	inactive: -8.7%	
COc1ccc(C(=O)NCC2(N3CCCCC3)CCCCC2)c(OC)c1OC	inactive: 7.11%	
O=C(NCC1(N2CCCCC2)CCCCC1)c1ccc(=O)[nH]c1	inactive: 19.1%	
O=C(NCC1(N2CCCCC2)CCCCC1)c1cccs1	inactive: -1.53%	
O=C(OC1CN2CCC1CC2)C1c2ccccc2Oc2ccccc21 (stereo unspecified)	inactive: -14.2%	
N#CC1(Nc2ccccc2)CCN(Cc2ccccc2)CC1	inactive: -22%	
O=C(NCC1(N2CCCCC2)CCCCC1)c1ccc(Cl)s1	inactive: -5.71%	
O=C1C(O)=C([N+](=O)[O-])C(=O)C(O)=C1[N+](=O)[O-]	inactive: -5.46%	
COc1ccc(Cl)cc1C(=O)NCC1(N2CCOCC2)CCCCC1	inactive: -7.7%	
CCOC(=O)N1CCC(Nc2ccc(OC)cc2)CC1		active: 18.4 µM
O=C(NCC1(N2CCCCC2)CCCCC1)c1ccc(Cl)nc1	inactive: -70%	
O=C(NCC1(N2CCOCC2)CCCCC1)c1cc2ccccc2o1	inactive: -3.93%	
O=C(NCC1(N2CCCCC2)CCCCC1)c1ccc(F)cc1	inactive: -5.07%	
O=P1(N(CCCl)CCCl)SCCCS1	inactive: -6.96%	
CCCCOc1ccc(C(=O)NCC2(N3CCOCC3)CCCCC2)cc1	inactive: -1.65%	
COc1ccc(NC2CCN(CCc3ccccc3)CC2)c(OC)c1	inactive: -1.34%	
CCOC(=O)N1CCC(Nc2ccc(F)cc2)CC1	inactive: -25.7%	
O=C1CCN(Cc2ccccc2)CC1	inactive: 0.534%	
CCOc1ccc(C)cc1CN(CCCl)CCCl	inactive: -4.72% [at 9.22 µM]	
COc1cc(C(=O)NCC2(N(C)C)CCCCC2)ccc1OC(F)F	inactive: 1.18%	
CCOC(=O)N1CCC(Nc2cccc(C)c2)CC1	inactive: 0.436%	
